Laboratory results: patent EP0468448B1, “Analogs of hirudin having antiplatelet activity” (MERRELL PHARMACEUTICALS INC., priority 1990, dated 1992)

The molecules below were run against thrombin (Bos taurus, UniProt P00735) (assay: biochemical).
Parameters: species or system Bovine
For `CC[C@H](C)[C@H](NC(=O)[C@@H]1CCCN1C(=O)[C@H](CCC(=O)O)NC(=O)[C@H](Cc1ccc(O)cc1)NC(=O)CCC(=O)O)C(=O)N1CCC[C@H]1C(=O)N[C@@H](CCCNC(=N)N)C(=O)NCC(=O)N[C@@H](CC(=O)O)C(=O)N[C@@H](Cc1ccccc1)C(=O)N[C@H](CCC(=O)O)C(=O)O` [Example 4], the IC50 was 15000 nM. Work on `CC[C@H](C)[C@H](NC(=O)[C@@H]1CCCN1C(=O)[C@H](CCC(=O)O)NC(=O)[C@H](Cc1c[nH]c2ccccc12)NC(=O)[C@H](CC(=O)O)NC(=O)c1ccc(CN)cc1)C(=O)N1CCC[C@H]1C(=O)N[C@@H](CCC(=O)O)C(=O)N[C@@H](CCC(=O)O)C(=O)N[C@@H](C)C(=O)N[C@@H](CC1CCCCC1)C(=O)N[C@H](CCC(=O)O)C(=O)O` [Example 6] yielded an IC50 of 2100 nM. Work on `CC[C@H](C)[C@H](NC(=O)[C@@H]1CCCN1C(=O)[C@H](CCC(=O)O)NC(=O)[C@H](Cc1c[nH]c2ccccc12)NC(=O)[C@H](CC(=O)O)NC(=O)c1ccc(CNC(=N)N)cc1)C(=O)N1CCC[C@H]1C(=O)N[C@@H](CCC(=O)O)C(=O)N[C@@H](CCC(=O)O)C(=O)N[C@@H](C)C(=O)N[C@@H](CC1CCCCC1)C(=O)N[C@H](CCC(=O)O)C(=O)O` [Example 7] yielded an IC50 of 1300 nM.
